In patent US10441628B2, “High activity tumour inhibitor and preparation method and use thereof” (BAO KANG BIOMEDICAL HEALTHCARE INC, priority 2014, dated 2019) one finds IC50 data, which are given here for three compounds.

Some results are limits rather than exact numbers.

One assay relates to HCCLM3. It is filed as cell-based. Conditions: 72 h. On the procedure:
(§1) The hepatoma cell line BEL7404 (purchased from The Chinese Academy of Sciences cell bank) was a cell line with high expression of YAP protein; HCCLM3 (purchased from The Chinese Academy of Sciences cell bank) was a cell line with low expression of YAP protein. The hepatoma cell lines (BEL7404 or HCCLM3) were inoculated into a 96-well plate at the concentration of 2000 cells/well, and incubated overnight in RPMI1640 containing 1% bovine serum at 37° C. The hepatoma cell lines were treated with polypeptides having different concentrations at 37° C. for 72 h.
(§2) Moreover, IC50 values of the cells in 1.1 were determined using CCK-8 kit.
(§3) The polypeptide represented by SEQ ID NO.:1 was further modified. The IC50 values of the polypeptides at a concentration of 1% in cell cultivating for 72 h were measured.

The next assay deals with BEL7404. It is filed as cell-based. Conditions: 72 h. On the procedure: as §1, §2, §3

On to `CC(C)C[C@H](NC(=O)[C@H](C)NC(=O)CNC(=O)[C@H](C)NC(=O)[C@@H](N)[C@@H](C)O)C(=O)N[C@H](C(=O)N1CCC[C@H]1C(=O)N[C@@H](CCC(N)=O)C(=O)N[C@@H](Cc1c[nH]cn1)C(=O)N[C@H](C(=O)N[C@@H](CCCNC(=N)N)C(=O)N[C@@H](C)C(=O)N[C@@H](Cc1c[nH]cn1)C(=O)N[C@@H](CO)C(=O)N[C@@H](CO)C(=O)N1CCC[C@H]1C(=O)O)C(C)C)[C@@H](C)O` [compound 18], for which the results for the half-maximal inhibitory concentration (IC50) with HCCLM3 and in the assay with BEL7404 were more than 1000 µM and 816 ± 14.4 µM, respectively.

As for `CC[C@H](C)[C@H](N)C(=O)N[C@H](C(=O)N[C@@H](Cc1c[nH]cn1)C(=O)N[C@H](C(=O)N[C@@H](CCCNC(=N)N)C(=O)NCC(=O)N[C@@H](CC(=O)O)C(=O)N[C@@H](CO)C(=O)N[C@@H](CCC(=O)O)C(=O)N[C@H](C(=O)N[C@@H](CC(=O)O)C(=O)N[C@@H](CC(C)C)C(=O)N[C@@H](CCC(=O)O)C(=O)N[C@@H](C)C(=O)N[C@@H](CC(C)C)C(=O)N[C@@H](Cc1ccccc1)C(=O)O)[C@@H](C)O)C(C)C)C(C)C` [compound 17], the IC50 with HCCLM3 is more than 1000 µM; in the assay on BEL7404 it was 211 ± 44.2 µM.

As for `CC(C)[C@H](NC(=O)CNC(=O)[C@@H](NC(=O)[C@@H]1CCCN1)[C@@H](C)O)C(=O)N[C@H](C(=O)N[C@@H](CO)C(=O)NCC(=O)N1CCC[C@H]1C(=O)N[C@@H](C)C(=O)N[C@@H](C)C(=O)N[C@H](C(=O)N1CCC[C@H]1C(=O)N[C@H](C(=O)N[C@@H](C)C(=O)N[C@@H](CCC(N)=O)C(=O)N[C@@H](Cc1c[nH]cn1)C(=O)O)[C@@H](C)O)[C@@H](C)O)C(C)C` [compound 19], the half-inhibitory concentration (IC50) is more than 1000 µM in the assay with HCCLM3 and 763 ± 31.5 µM in the assay with BEL7404.

Usually IC50 stands for the concentration that gives 50% inhibition. A high value points to weaker potency.
